This passage reports IC50 results from PMC7435673, “Synthesis of α-Aminophosphonic Acid Derivatives Through the Addition of O- and S-Nucleophiles to 2H-Azirines and Their Antiproliferative Effect on A549 Human Lung Adenocarcinoma Cells” (Molecules, 2020).

A short description of this data set: in vitro. The settings on record: human.
As to `CCOP(=O)(OCC)C(N)C(C)(OC)OC` (stereo not drawn) [Compound 4f, Diethyl (1-amino-2,2-dimethoxypropyl)phosphonate], the half-inhibitory concentration (IC50) at 48 h was > 50 µM.
The value for `COC(C)(OC)C(N)P(=O)(OC(C)C)OC(C)C` (stereo not drawn) [Compound 4e, Diisopropyl (1-amino-2,2-dimethoxypropyl)phosphonate] was > 50 µM; that for `C=C(Sc1ccccc1)C(N)P(=O)(OCC)OCC` (stereo not drawn) [Compound 15e, Diethyl [1-amino-2-(phenylthio)allyl]phosphonate] was > 50 µM.
